Experimental data: PubChem BioAssay AID504897 (Southern Research Specialized Biocontainment Screening …, 2011)

Tested on: Mycobacterium tuberculosis H37Rv growth inhibition, 7H9 medium
Experiment: M. tuberculosis growth inhibition, dose response, H37Rv, 7H9 media, purified and synthesized compounds, set 6 (AID 504897)

Question: With `CO[C@H]1/C=C/O[C@@]2(C)Oc3c(C)c(O)c4c(O)c(c(C=NN5CCN(C)CC5)c(O)c4c3C2=O)NC(=O)/C(C)=C\C=C\[C@H](C)[C@H](O)[C@@H](C)[C@@H](O)[C@@H](C)[C@H](OC(C)=O)[C@@H]1C` as the compound, how does the IC90 read?
Answer: 15 nM

Question: What about the IC50 (measured here: IC50 of Mtb growth inhibition) of the same compound?
Answer: < 6 nM
